Results from patent US20090170801A1 (Beijing Century Biocom Pharmaceutical Technology Co. Ltd., priority 2006, published 2009).

Test system: decapitated mice
Assay: Breathing time, breathing frequency, brain index and brain water content in decapitated mice
Type: in vivo, ICR mice
Details: 2 mg/kg tail i.v.
Experimental: ICR mice (equally divided between male and female) were divided randomly in a blank control group, a positive control group, and three kelp fucoidan sample groups. […] The positive control group was administrated nimodipine (2 mg/kg) by tail intravenous injection. The model group was administrated normal salt. At 15 minutes after administration, the mice were decapitated by a pair of scissors. The mouth breathing time, breathing frequency and brain water content were recorded and compared with other groups. Whole brains were collected. After the wet weight was obtained, they were dried in an oven at 100° C. for 24 hours. The average value was taken to calculate brain water content: brain water content (%)=[…]. Brain index: brain index=brain wet weight (g)/body weight (g)×100%.

[1] = decapitated 15 min after administration

COCCOC(=O)C1=C(C)NC(C)=C(C(=O)OC(C)C)C1c1cccc([N+](=O)[O-])c1 (stereo not drawn) [Nimodipine, nimodipine]
Breathing frequency [1]: 17.0 ± 3.2 times | Breathing time [1]: 23.8 ± 3.2 s | Brain index (brain wet weight/body weight): 1.40 ± 0.14 %
